Measurements from paper PMC12111632, “Expression, purification and preliminary pharmacological characterization of the Plasmodium falciparum membrane-bound pyrophosphatase type 1” (PLOS One, 2025).
Structures can show the parent of a compound that is named as a salt.

Amino acid sequences for entries named in this document (tags omitted).
UniProt Q8IKR1, entry or part of it: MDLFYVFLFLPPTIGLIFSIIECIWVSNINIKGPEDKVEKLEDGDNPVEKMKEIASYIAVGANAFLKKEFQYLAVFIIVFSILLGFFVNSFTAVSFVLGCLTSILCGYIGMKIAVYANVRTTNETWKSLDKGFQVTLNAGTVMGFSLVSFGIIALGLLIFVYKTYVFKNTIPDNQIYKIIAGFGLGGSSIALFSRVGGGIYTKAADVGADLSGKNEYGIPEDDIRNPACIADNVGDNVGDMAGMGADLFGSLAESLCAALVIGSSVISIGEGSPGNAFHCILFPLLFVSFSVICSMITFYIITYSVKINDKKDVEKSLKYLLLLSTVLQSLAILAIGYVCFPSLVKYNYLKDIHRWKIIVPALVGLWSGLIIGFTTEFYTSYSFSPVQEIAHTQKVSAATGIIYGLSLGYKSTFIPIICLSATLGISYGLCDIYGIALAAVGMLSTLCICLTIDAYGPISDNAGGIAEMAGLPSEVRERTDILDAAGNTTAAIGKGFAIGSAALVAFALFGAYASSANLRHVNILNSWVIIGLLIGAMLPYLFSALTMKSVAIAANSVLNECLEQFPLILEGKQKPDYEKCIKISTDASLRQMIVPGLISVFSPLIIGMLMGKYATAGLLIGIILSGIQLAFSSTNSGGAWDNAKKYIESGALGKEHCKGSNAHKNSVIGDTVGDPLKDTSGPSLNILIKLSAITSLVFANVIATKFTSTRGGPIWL

Target: PfPPase-VP1 (Plasmodium falciparum, UniProt Q8IKR1)
Assay type: biochemical
Conditions: purified PfPPase-VP1 reconstituted in liposomes, Tris-HCl pH 7.5, 50 °C, 45 min, triplicate; interval given
Procedure: The activity of PfPPase-VP1 was determined using a molybdenum blue colorimetric activity assay in 96-well plate format to measure the amount of phosphate production, as previously described for TmPPase but with modifications to pH (5.2–10) and temperature conditions (20–70°C) as described below. To determine the optimal pH for PfPPase-VP1 activity, 5 μL of 2.5 mg/mL total membrane protein was added to the reaction mixture (60 mM of various buffers (below) with pHs ranging from 5.2–10.0, 3 mM MgCl2, 100 mM KCl, and 10 mM NaCl, 100 mM NaF, 5 μM Gramicidin D), to a final volume of 40 μL. Buffers were trisodium-citrate (pH 5.2), MES (pH 6.5), Tris-HCl (pH 6.8, 7.5, 8.0, and 8.8) and glycine-NaOH (pH 10.0). A control sample was prepared by heating the membrane faction at 90 °C for 5 min to inactivate the enzyme. The reaction mixture was incubated at 30 °C for 5 min in a 96-well heating block. After incubation, 10 µl of 2 mM sodium pyrophosphate (PPi) was added, mixed, and incubated for 10 min. […] Absorbance was measured at 860 nm on a MultiSkan Go UV/Vis spectrophotometer (Thermo Scientific). The specific activity of PfPPase-VP1 in the membrane was calculated using our previously published formula [23]. […] The catalytic reaction was run for 45 min at 50 °C, and the phosphate production was determined as described above. […]

Structure (SMILES): OC(c1cc(C(F)(F)F)nc2c(C(F)(F)F)cccc12)C1CCCCN1 (stereo not shown) [Compound 5, Mefloquine hydrochloride]
- IC50 (PfPPase, μM): Inactive
